# This is a selection; strong and weak results do not stand in their true shares. Some salts and complexes are drawn in separate pieces, as the source files them; their charges need not balance. Activity calls are given as the source filed them.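 The calls were made as follows: active = compounds causing at least 50% loss of cell viability in the single-dose screen, relative to plate controls; inactive = the rest.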
# Test: TRAIL-exposed caspase-8 expressing cell killing – NB7+C8 cells, ATPlite luminescence, TRAIL sensitizer project, primary screen (AID 624354)
# Details: at 10 µM, active compounds read high
row,SMILES,"inhibition (viability loss, TRAIL sensitization)"
1,Cc1cccc(C)c1OP(C)(N)=O (centres undefined),inactive: -0.921%
2,CC(C)(C)c1ccc(OP(C)(=O)Nc2ccc(SC(F)(F)F)cc2)cc1 (centres undefined),inactive: -6.85%
3,O=[N+]([O-])c1ccc2c(c1)C=Nc1ccccc1O2,inactive: 4.43%
4,O=[N+]([O-])c1cc([N+](=O)[O-])c(Nc2cccnc2)c([N+](=O)[O-])c1,inactive: 15.3%
5,COc1ccc(OP(C)(=O)Nc2cccc(F)c2)cc1 (centres undefined),inactive: 4.34%
6,COc1ccccc1OP(C)(=O)Nc1cc(Cl)ccc1C (centres undefined),inactive: -7.23%
7,Cc1cc(C)cc(OP(C)(N)=O)c1 (centres undefined),inactive: 0.738%
8,CCOC(=O)c1ccc(NP(C)(=O)Oc2ccccc2)cc1 (centres undefined),inactive: 9.65%
9,Cc1ccc(NP(C)(=O)Oc2ccccc2)c(C)c1 (centres undefined),inactive: -13.7%
10,COc1ccccc1OP(C)(=O)Nc1ccc(C)cc1 (centres undefined),inactive: 4.7%
11,CCN(CC)CCCOC(=O)C(O)(c1ccccc1)c1ccccc1,inactive: 3.87%
12,COc1ccccc1-c1ccccn1.O=[N+]([O-])c1cc([N+](=O)[O-])c(O)c([N+](=O)[O-])c1,inactive: -8.34%
13,Cc1cc(C)cc(OP(C)(=O)Nc2ccc(SC(F)(F)F)cc2)c1 (centres undefined),inactive: 0.56%
14,CP(=O)(NC(=O)Nc1ccccc1)Oc1ccccc1 (centres undefined),inactive: 8.71%
15,CCc1ccc(OP(C)(=O)N2CCN(c3ccc([N+](=O)[O-])cc3)CC2)cc1 (centres undefined),inactive: 8.46%
16,CP(=O)(Oc1ccccc1)OC(c1ccccc1)C(F)(F)F (centres undefined),inactive: 1.27%
17,Cc1cccc(C)c1OP(C)(=O)Nc1ccc(SC(F)(F)F)cc1 (centres undefined),inactive: 0.25%
18,Cc1ccc(Nc2c([N+](=O)[O-])cc([N+](=O)[O-])cc2[N+](=O)[O-])cc1,inactive: 24.7%
19,CP(=O)(Nc1ccc(SC(F)(F)F)cc1)Oc1ccc(Cl)cc1 (centres undefined),inactive: -5.5%
20,CP(=O)(Nc1ccccn1)Oc1ccc(Cl)cc1 (centres undefined),inactive: -31%
21,CCOP(C)(=S)SCC(=O)NC(C)C(=O)O (centres undefined),inactive: -0.607%
22,CCOC(=O)c1ccc(NP(C)(=O)Oc2ccc(OC)cc2)cc1 (centres undefined),inactive: -5.7%
23,O=[N+]([O-])c1cc([N+](=O)[O-])c(O)c([N+](=O)[O-])c1.c1ccc(Oc2ccncc2)cc1,inactive: -37.7%
24,COc1ccccc1OP(C)(=O)Nc1ccccc1 (centres undefined),inactive: 2.23%
25,CP(=O)(Nc1ccccc1Br)Oc1ccccc1 (centres undefined),inactive: -3.88%

row,SMILES,"inhibition (viability loss, TRAIL sensitization)"
1,CP(=S)(Nn1cnnc1)Oc1ccccc1 (centres undefined),inactive: 10.6%
2,CCOC(=O)C(CC)C1=NC(C)(C)Cc2ccccc21.O=[N+]([O-])c1cc([N+](=O)[O-])c(O)c([N+](=O)[O-])c1 (centres undefined),inactive: -10.1%
3,CC1=C2N=C(C=C3N=C(C(C)=C4[N-][C@@](C)([C@@H]5N=C1[C@](C)(CCC(=O)NC[C@@H](C)OP(=O)([O-])O[C@H]1[C@@H](O)[C@@H](n6cnc7cc(C)c(C)cc76)O[C@@H]1CO)[C@H]5CC(N)=O)[C@@](C)(CC(N)=O)[C@@H]4CCC(N)=O)[C@@](C)(CC(N)=O)[C@@H]3CCC(N)=O)C(C)(C)[C@@H]2CCC(N)=O.[C-]#N.[Co+3],inactive: 3.85%
4,O=[N+]([O-])c1cc([N+](=O)[O-])c(Nc2nnnn2CCO)c([N+](=O)[O-])c1,inactive: 6.54%
5,CCCOc1ccc(NP(C)(=O)Oc2ccc(Cl)cc2)cc1 (centres undefined),inactive: -6.43%
6,CP(=O)(Nc1ccc(SC(F)(F)F)cc1)Oc1ccccc1 (centres undefined),inactive: 15.7%
7,COc1ccc(-c2ccccn2)cc1.O=[N+]([O-])c1cc([N+](=O)[O-])c(O)c([N+](=O)[O-])c1,inactive: 8.28%
8,COc1ccccc1OP(C)(=O)Nc1c(C)cccc1C (centres undefined),inactive: 1.07%
9,CN1CCCCC1COC(=O)C1(O)c2ccccc2CCc2ccccc21 (centres undefined),inactive: 7.01%
10,CN(Cc1cccnc1)C(=O)COc1ccc(Cl)c(Cl)c1.O=[N+]([O-])c1cc([N+](=O)[O-])c(O)c([N+](=O)[O-])c1,inactive: 10.5%
11,O=[N+]([O-])c1cc([N+](=O)[O-])c(-n2nnc3ccccc32)c([N+](=O)[O-])c1,inactive: 5.58%
12,Cc1nc2ccc3ccccc3c2s1.O=[N+]([O-])c1cc([N+](=O)[O-])c(O)c([N+](=O)[O-])c1,inactive: 21.5%
13,O=[N+]([O-])c1cc([N+](=O)[O-])c(-c2cnn(-c3ccccc3)c2)c([N+](=O)[O-])c1,inactive: 21.3%
14,Cc1cc(C)cc(OP(C)(=O)Nc2ccc(C)cc2C)c1 (centres undefined),inactive: -15%
15,CCOC(=O)c1ccc(NP(C)(=O)Oc2cc(C)cc(C)c2)cc1 (centres undefined),inactive: 5.31%
16,COc1ccccc1OP(C)(=O)Nc1cccc(Br)c1 (centres undefined),inactive: -5.48%
17,Cc1cc(C)cc(OP(C)(=O)Nc2ccccn2)c1 (centres undefined),inactive: -32.3%
18,CP(=O)(Nc1cccc(Br)c1)Oc1ccccc1 (centres undefined),inactive: -10.4%
19,Cc1ccc(C)c(NP(C)(=O)Oc2ccccc2)c1 (centres undefined),inactive: 0.224%
20,O=C(O)c1cccc(Nc2c([N+](=O)[O-])cc([N+](=O)[O-])cc2[N+](=O)[O-])c1,inactive: 1.06%
21,CC1=NCCc2c1[nH]c1ccccc21.O=[N+]([O-])c1cc([N+](=O)[O-])c(O)c([N+](=O)[O-])c1,inactive: 4.44%
22,COc1ccc(OP(C)(=O)Nc2ccc(SC(F)(F)F)cc2)cc1 (centres undefined),inactive: -0.0563%
23,CCOC(=O)c1ccc(NP(C)(=O)Oc2ccc(F)cc2)cc1 (centres undefined),inactive: -2.02%
24,CCN(CC)CCCNc1ccccc1[N+](=O)[O-].O=[N+]([O-])c1cc([N+](=O)[O-])c(O)c([N+](=O)[O-])c1,inactive: 0.837%
25,CCCCCOc1ccc(NP(C)(=O)Oc2ccc(Cl)cc2Cl)cc1 (centres undefined),inactive: 6.67%

row,SMILES,"inhibition (viability loss, TRAIL sensitization)"
1,O=[N+]([O-])c1cc([N+](=O)[O-])c(OC2CCCCC2O)c([N+](=O)[O-])c1 (centres undefined),inactive: 8.55%
2,CP(=O)(Nc1ccccc1)Oc1ccc(F)cc1 (centres undefined),inactive: 1.59%
3,CCN(CC)CCCOC(=O)C(O)(c1ccccc1)C1CCCCC1 (centres undefined),inactive: 7.89%
4,Cc1c([N+](=O)[O-])cc([N+](=O)[O-])c(Br)c1[N+](=O)[O-],inactive: -16%
5,CC(C)c1ccc(OP(C)(=O)Nc2ccc(SC(F)(F)F)cc2)cc1 (centres undefined),inactive: -3.65%
6,CP(=O)(Nc1ccccc1F)Oc1ccccc1 (centres undefined),inactive: -15.8%
7,O=[N+]([O-])c1cc([N+](=O)[O-])c(Nc2ccc(Cl)cc2)c([N+](=O)[O-])c1,inactive: 16.2%
8,COc1ccc2c(c1O)-c1c(O)c(OC)cc3c1[C@H](C2)[N+](C)(C)CC3.O=[N+]([O-])c1cc([N+](=O)[O-])c([O-])c([N+](=O)[O-])c1[O-],inactive: 7.85%
9,O=C(OCCN1CCN(CCOCc2ccccc2)CC1)C(O)(c1ccccc1)c1ccccc1,inactive: -2.6%
10,O=C(OC1CN2CCC1CC2)c1ccc([N+](=O)[O-])cc1 (centres undefined),inactive: -4.02%
11,CCOP(C)(=S)SCC(=O)NC(C)(CC)C(=O)O (centres undefined),inactive: -20.2%
12,CP(=O)(Nc1ccc(SC(F)(F)F)cc1)Oc1ccc(F)cc1 (centres undefined),inactive: 0.762%
13,O=[N+]([O-])c1cc([N+](=O)[O-])c(C(F)(F)F)c([N+](=O)[O-])c1O,inactive: -5.95%
14,Cc1ccccc1NP(C)(=O)Nc1ccccc1C,inactive: -5.76%
15,CP(=O)(Nc1ccc2c(c1)OCCO2)Oc1ccccc1 (centres undefined),inactive: -5.39%
16,COc1ccc(NP(C)(=O)Oc2ccccc2OC)cc1 (centres undefined),inactive: -3.91%
17,CN(C)CCOC(=O)C(O)(c1ccccc1)C1CCCCC1 (centres undefined),inactive: 7.4%
18,COc1ccc(OP(C)(=O)Nc2cccc(Br)c2)cc1 (centres undefined),inactive: 5.7%
19,Cc1c(C(c2ccc3c(c2)OCO3)c2c(C)n(C)n(-c3ccccc3)c2=O)c(=O)n(-c2ccccc2)n1C.O=[N+]([O-])c1cc([N+](=O)[O-])c(O)c([N+](=O)[O-])c1,inactive: 3.29%
20,O=[N+]([O-])c1cc([N+](=O)[O-])c(NCC2CCS(=O)(=O)C2)c([N+](=O)[O-])c1 (centres undefined),inactive: 3.65%
21,Cc1cc(-c2cccc3ccccc23)c(C)cn1.O=[N+]([O-])c1cc([N+](=O)[O-])c(O)c([N+](=O)[O-])c1,inactive: 4.61%
22,O=[N+]([O-])c1ccc(OP2(=O)COCCO2)cc1 (centres undefined),inactive: 5.92%
23,CP(=O)(OC12CC3CC(CC(C3)C1)C2)OC12CC3CC(CC(C3)C1)C2,inactive: -10.3%
24,CCOC(=O)c1ccc(NP(C)(=O)Oc2ccc(Cl)cc2)cc1 (centres undefined),inactive: -24.1%
25,CCc1ccc(OP(C)(=O)Nc2cccnc2)cc1 (centres undefined),inactive: -13.5%

row,SMILES,"inhibition (viability loss, TRAIL sensitization)"
1,CP(=O)(Oc1ccccc1)N1CCOC1=O (centres undefined),inactive: -9.87%
2,O=C(OCCCN1CCCC1)C(O)(c1ccccc1)C1CCCCC1 (centres undefined),inactive: -6.77%
3,COc1ccccc1OP(C)(=O)Nc1c(C)n(C)n(-c2ccccc2)c1=O (centres undefined),inactive: -8.29%
4,COc1ccc(OP(C)(=O)Nc2ccc(Br)cc2)cc1 (centres undefined),inactive: -15.5%
5,CCN(CC)CC(O)COC(=O)C(O)(c1ccccc1)C1CCCCC1 (centres undefined),inactive: 3.92%
6,CN(C)C(=O)c1c([N+](=O)[O-])cc([N+](=O)[O-])cc1[N+](=O)[O-],inactive: -6.07%
7,CP(=O)(Nc1ccc(Cl)cc1)Oc1ccc(F)cc1 (centres undefined),inactive: 18.6%
8,COc1ccccc1OP(C)(=O)Nc1ccccc1Br (centres undefined),inactive: 0.996%
9,CC(C)(C)c1ccc(OP(C)(=O)O)cc1,inactive: -13.6%
10,CN(C)CCOC(=O)C(O)(c1ccccc1)C1CCCC1 (centres undefined),inactive: -0.944%
11,COc1ccc(OP(C)(=O)Nc2ccccn2)cc1 (centres undefined),inactive: -5.96%
12,COc1ccccc1OP(C)(=O)Nc1ccc(Br)cc1 (centres undefined),inactive: -7.31%
13,CCc1ccc(OP(C)(=O)O)cc1,inactive: -5.83%
14,COc1ccccc1OP(C)(=O)Nc1ccc(C)cc1C (centres undefined),inactive: -12.2%
15,CP(=O)(Nc1ccccn1)Oc1ccccc1 (centres undefined),inactive: -11.4%
16,Cc1c(NP(C)(=O)Oc2ccc(C(C)C)cc2)c(=O)n(-c2ccccc2)n1C (centres undefined),inactive: -1.42%
17,O=[N+]([O-])c1cc([N+](=O)[O-])c(Nc2ccccn2)c([N+](=O)[O-])c1,active: 52%
18,COc1ccc(OP(C)(=O)Nc2ccccc2Br)cc1 (centres undefined),inactive: 6.39%
19,COc1ccccc1OP(C)(=O)Nc1ccc(C)c(C)c1 (centres undefined),inactive: -3.74%
20,Cc1cc(C)cc(OP(C)(=O)Nc2cccc(C(F)(F)F)c2)c1 (centres undefined),inactive: -3.15%
21,O=C1C(O)=C([N+](=O)[O-])C(=O)C(O)=C1[N+](=O)[O-],inactive: 4.7%
22,CCCCCCCCCCCCCCCC1C[N+](C)(C)CCOP(C)(=O)O1 (centres undefined),active: 80.9%
23,CP(=O)(Nc1ccc(Cl)cc1Cl)Oc1ccccc1 (centres undefined),inactive: 1.7%
24,CP(=O)(OCCOc1ccccc1)OCCOc1ccccc1,inactive: 4.04%

# — PubChem BioAssay AID624354 (Sanford-Burnham Center for Chemical Genomics, 2012)
